Source: PubChem BioAssay AID1326 (NMMLSC, 2008)
The entries are a selection whose mix differs from that of the whole data set. Active and inactive are the calls of the source. No stated cut-off is given here; in the data, active means inhibition above about 40%; inactive means the rest.

Sequences of proteins named here, by UniProt entry; tags and fusion partners are left off.
UniProt P08183, whole entry, looked up: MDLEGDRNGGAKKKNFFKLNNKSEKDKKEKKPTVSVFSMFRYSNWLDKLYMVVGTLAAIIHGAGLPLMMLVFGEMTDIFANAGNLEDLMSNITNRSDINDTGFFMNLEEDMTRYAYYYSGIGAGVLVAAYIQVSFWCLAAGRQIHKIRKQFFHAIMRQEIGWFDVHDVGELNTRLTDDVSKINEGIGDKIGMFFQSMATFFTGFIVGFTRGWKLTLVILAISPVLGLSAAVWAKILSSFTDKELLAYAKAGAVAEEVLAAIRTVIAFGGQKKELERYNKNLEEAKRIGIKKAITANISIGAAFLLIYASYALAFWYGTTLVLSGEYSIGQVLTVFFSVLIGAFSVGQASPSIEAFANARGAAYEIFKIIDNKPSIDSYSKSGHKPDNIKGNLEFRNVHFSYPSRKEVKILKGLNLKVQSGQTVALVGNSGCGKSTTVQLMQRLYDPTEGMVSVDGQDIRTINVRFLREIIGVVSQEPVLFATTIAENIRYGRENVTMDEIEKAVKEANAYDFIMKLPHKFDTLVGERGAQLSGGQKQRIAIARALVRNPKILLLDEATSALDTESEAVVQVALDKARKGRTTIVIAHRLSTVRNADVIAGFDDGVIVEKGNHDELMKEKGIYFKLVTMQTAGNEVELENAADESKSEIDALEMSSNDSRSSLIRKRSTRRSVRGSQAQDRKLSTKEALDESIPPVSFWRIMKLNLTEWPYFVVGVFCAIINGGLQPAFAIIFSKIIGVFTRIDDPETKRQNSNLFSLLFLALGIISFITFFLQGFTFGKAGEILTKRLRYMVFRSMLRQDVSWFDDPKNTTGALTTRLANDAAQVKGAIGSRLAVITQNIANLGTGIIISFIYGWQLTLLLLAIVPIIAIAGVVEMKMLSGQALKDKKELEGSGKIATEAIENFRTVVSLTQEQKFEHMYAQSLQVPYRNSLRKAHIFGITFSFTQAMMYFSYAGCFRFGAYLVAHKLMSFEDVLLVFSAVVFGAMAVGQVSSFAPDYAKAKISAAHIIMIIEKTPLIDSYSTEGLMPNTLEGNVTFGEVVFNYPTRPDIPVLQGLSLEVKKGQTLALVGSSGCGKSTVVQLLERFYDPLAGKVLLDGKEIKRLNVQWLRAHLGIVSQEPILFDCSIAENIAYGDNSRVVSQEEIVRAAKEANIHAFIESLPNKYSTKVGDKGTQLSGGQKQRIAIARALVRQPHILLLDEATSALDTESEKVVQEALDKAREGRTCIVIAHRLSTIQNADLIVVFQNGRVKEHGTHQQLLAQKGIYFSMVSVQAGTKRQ

Target: ATP-dependent translocase ABCB1 (Homo sapiens) (UniProt P08183)
Assay: ABCB1 efflux pump inhibitors, primary screen, cell-based, multiplex, flow cytometry, ABCG2 counter-screen (AID 1326);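 further: 0% = vehicle and 100% = reference inhibitor; higher value means more JC-1 retained so stronger ABCB1 efflux block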
Conditions: CCRF-Adr cells, JC-1 efflux, at 6.6 µM, stronger effect = higher value

SMILES | inhibition
COC(=O)c1cc2c(s1)N=C(c1ccccc1)N(C)P2(=O)N1CCOCC1 (configuration not stated) | inactive: -0.22%
Cc1ccc(OP(=O)(Nc2ccccn2)Oc2ccc(C)cc2)cc1 | inactive: 0.55%
CC(=O)NC(SC(=S)N(CC(C)C)CC(C)C)C(Cl)(Cl)Cl (configuration not stated) | inactive: 0.87%
CCC(=O)N1C2C3N(C(=O)CC)C1C1N(C(=O)CC)C(C(N1C(=O)CC)N3C(=O)CC)N2C(=O)CC | inactive: 0.36%
O=c1c2cc([N+](=O)[O-])ccc2[nH]c2c([N+](=O)[O-])cc([N+](=O)[O-])cc12 | inactive: -0.14%
CCNC(=S)/N=C(\N)N[N+](=O)[O-] | inactive: 0.29%
O=C(NC1CCS(=O)(=O)C1)NP(=S)(Oc1ccccc1)Oc1ccccc1 (configuration not stated) | inactive: 0.59%
c1ccc(-c2nn[nH]n2)c(-c2nn[nH]n2)c1 | inactive: -0.05%
CCOC(=O)NC(Sc1ccccc1)C(Cl)(Cl)Cl (configuration not stated) | inactive: 0.37%
CC(=O)Nc1ccc(Oc2c([N+](=O)[O-])cc([N+](=O)[O-])cc2[N+](=O)[O-])cc1 | inactive: 4.34%
O=P1(Nc2nc3ccc(Cl)cc3s2)COc2ccccc2O1 (configuration not stated) | inactive: 0.19%
CCOc1ccc(C2=NCC(CBr)S2)cc1 (configuration not stated) | inactive: 0.21%
CC(C)(C)C(=O)NC(Sc1ccccc1)C(Cl)(Cl)Cl (configuration not stated) | inactive: 0.15%
CC(C)C(=O)NC(Sc1ccccc1)C(Cl)(Cl)Cl (configuration not stated) | inactive: 0.79%
O=P(Nc1nccs1)(c1ccccc1)c1ccccc1 | inactive: 0.46%
c1nnnn1CCn1cnnn1 | inactive: 0.45%
CC(=O)NC(SC(=S)N(C)C)C(Cl)(Cl)Cl (configuration not stated) | inactive: 4.33%
O=C(OC1CN2CCC1CC2)c1cccc(Cl)c1 (configuration not stated) | inactive: 0.75%
O=P(Nc1ccccn1)(c1ccc(Br)cc1)c1ccc(Br)cc1 | inactive: 0.8%
O=[N+]([O-])c1ncn(CCn2ncnc2[N+](=O)[O-])n1 | inactive: 1.23%
CCN(/C(=N/P(=O)(N1CCOCC1)N1CCOCC1)N1CCOCC1)c1ccc(OC)cc1 | inactive: -0.28%
CC(C)=N/N=C(\N)N[N+](=O)[O-] | inactive: 0.38%
CN(C)C(=O)OCCc1n(C)cc[n+]1C | inactive: 0.01%
CC1CCN(C(=O)Oc2c(Cl)cc(Cl)c3cccnc23)CC1 | inactive: 0.45%
COc1ccc(C2=NCC(CBr)S2)cc1 (configuration not stated) | inactive: -0.31%
O=[N+]([O-])c1cccc2n[nH]nc12 | inactive: 0.35%

SMILES | inhibition
CC(=O)N1C2C3N(C(C)=O)C1C1N(C(C)=O)C(C(N1C(C)=O)N3C(C)=O)N2C(C)=O | inactive: -0.07%
Cc1ccc(NP(=O)(Oc2ccccc2)Oc2ccccc2)nc1 | inactive: -0.18%
CCc1nc2c(n1)c1c(non1O)c1c2no[n+]1[O-] | inactive: 0.17%
O=[N+]([O-])c1cc([N+](=O)[O-])c(CCNc2ccccc2)c([N+](=O)[O-])c1 | inactive: 1.73%
CC(C)CC(=O)NC(Sc1ccc(Cl)cc1)C(Cl)(Cl)Cl (configuration not stated) | inactive: 0.94%
Oc1ccccc1CNc1ccccn1 | inactive: -0.19%
Cc1c2non([O-])c-2c(C)[n+](=O)[n+]1[O-] | inactive: 0.38%
O=C(NC(Sc1ccncn1)C(Cl)(Cl)Cl)c1ccccc1 (configuration not stated) | inactive: 0.15%
NC(=O)c1cc([N+](=O)[O-])cc([N+](=O)[O-])c1N | inactive: 0.34%
Cc1ccc(N/C(=N/P(=O)(N2CCOCC2)N2CCOCC2)N2CCOCC2)cc1 | inactive: 0.87%
COc1ccccc1OP(=O)(Nc1ccc(C)cn1)Oc1ccccc1OC | inactive: 0.76%
Clc1ccc(Cl)c(NC2=NCC(CBr)S2)c1 (configuration not stated) | inactive: 0.16%
CN1CCCC(OC(=O)C(c2ccccc2)c2ccccc2)C1 (configuration not stated) | inactive: 0.14%
CCN(N=Nc1nonc1N)c1nonc1N | inactive: 0.22%
CCOP(=O)(Nc1ccccc1)OCC | inactive: 0.17%
Cc1cc(SC(NC(=O)c2ccc(F)cc2)C(Cl)(Cl)Cl)ncn1 (configuration not stated) | inactive: 0.04%
ClCCSc1nnc(-c2cccnc2)o1 | inactive: 0.72%
CCN(CC)C(=S)SC(NC=O)C(Cl)(Cl)Cl (configuration not stated) | inactive: 0.6%
CC(C)NC(=O)NP(=O)(Oc1ccccc1)Oc1ccccc1 | inactive: -0.45%
O=[N+]([O-])c1cc([N+](=O)[O-])c(-c2ccn[nH]2)s1 | inactive: 0.05%
Cc1ccc2nc3c(c(C)c2c1)CC(C(Cl)Cl)S3 (configuration not stated) | inactive: 0.44%
COc1ccc(N/C(=N/P(=O)(N2CCOCC2)N2CCOCC2)N2CCOCC2)cc1 | inactive: 0.02%
O=C(OC1CN2CCC1CC2)C12CC3CC(CC(C3)C1)C2 (configuration not stated) | inactive: 0.18%
Cc1cc(=O)[nH]c(N[N+](=O)[O-])n1 | inactive: 0.04%
Cc1c2c(nc3ccccc13)SC(C(Cl)Cl)C2 (configuration not stated) | inactive: 0.22%
COc1ccc2nc(NP(=O)(c3ccccc3)c3ccccc3)sc2c1 | inactive: 0.49%

SMILES | inhibition
CCC(C)N(CC(C)C)C(=S)SC(NC(C)=O)C(Cl)(Cl)Cl (configuration not stated) | inactive: 0.38%
COP1(=S)c2c(C)nn(CCC#N)c2N=C(c2ccc(F)cc2)N1C (configuration not stated) | inactive: 3.16%
O=C(COc1ccccc1)OC1CN2CCC1CC2 (configuration not stated) | inactive: 0.09%
O=P(Nc1ccccn1)(c1cccc2ccccc12)c1cccc2ccccc12 | inactive: 0.55%
Cc1cc(SC(NC=O)C(Cl)(Cl)Cl)ncn1 (configuration not stated) | inactive: 0%
Cc1cc(SC(NC(=O)c2ccccc2)C(Cl)(Cl)Cl)nc(C(C)C)n1 (configuration not stated) | inactive: 0%
O=P1(Nc2ncccn2)COc2ccccc2OC1 | inactive: -0.28%
O=P1(Nc2ccc(Br)cn2)COc2ccccc2OC1 | inactive: 0.21%
Cc1ccc(OCC(=O)OC2CN3CCC2CC3)cc1 (configuration not stated) | inactive: -0.07%
Cc1nn(-c2ccccc2)c2c1P(=O)(N1CCOCC1)N(C)C(c1ccccc1)=N2 (configuration not stated) | inactive: 0.47%
CC1CCC(C(C)C)C(OP(=O)(Nc2ccccn2)c2ccccc2)C1 (configuration not stated) | inactive: 1.36%
CN(C)C1(CNC(=O)c2ccc(S(C)(=O)=O)cc2)CCCCC1 | inactive: 0.04%
CC(C)/C=N\N=C(\N)N[N+](=O)[O-] | inactive: 0.45%
O=P1(Nc2ccccn2)COc2ccccc2OC1 | inactive: 2.91%
Clc1n[nH]nc1-c1nn[nH][15n]1 | inactive: 0.06%
Cc1ccc(NCCc2c([N+](=O)[O-])cc([N+](=O)[O-])cc2[N+](=O)[O-])cc1 | inactive: 1.73%
COc1cc(C2NCCC3(OCCO3)C2(C)C)cc(OC)c1OC (configuration not stated) | inactive: 8.21%
CCOP(=O)(Nc1cccc2ccccc12)OCC | inactive: -0.13%
COc1cc(C(=O)NCC2(N3CCOCC3)CCCCC2)cc(Cl)c1OC(C)C | inactive: 0.36%
Cc1cccc(OCC(=O)OC2CN3CCC2CC3)c1 (configuration not stated) | inactive: -0.72%
O=[N+]([O-])c1ccc2c(c1)nnn2O | inactive: 0.33%
CCOP1(=S)c2c(C)nn(CCC#N)c2N=C(c2ccc(F)cc2)N1C (configuration not stated) | inactive: -0.26%
CCOP1(=S)c2c(C)nn(CCC#N)c2N=C(c2ccccc2F)N1C (configuration not stated) | inactive: 1.41%
O=P(Nc1nccs1)(c1ccccc1)c1nc2ccccc2s1 (configuration not stated) | inactive: 1.16%
O=P(Nc1nccs1)(Oc1ccccc1)Oc1ccccc1 | inactive: 0.62%
